Assay results from ChEMBL document CHEMBL4507280, “Data for DCP probe BI 99179” (2021).

The chains behind the UniProt entries cited, without tags or fusion partners. Where a name states a change or a piece, a line headed by the entry shows the natural chain unless it says otherwise.
UniProt P49841: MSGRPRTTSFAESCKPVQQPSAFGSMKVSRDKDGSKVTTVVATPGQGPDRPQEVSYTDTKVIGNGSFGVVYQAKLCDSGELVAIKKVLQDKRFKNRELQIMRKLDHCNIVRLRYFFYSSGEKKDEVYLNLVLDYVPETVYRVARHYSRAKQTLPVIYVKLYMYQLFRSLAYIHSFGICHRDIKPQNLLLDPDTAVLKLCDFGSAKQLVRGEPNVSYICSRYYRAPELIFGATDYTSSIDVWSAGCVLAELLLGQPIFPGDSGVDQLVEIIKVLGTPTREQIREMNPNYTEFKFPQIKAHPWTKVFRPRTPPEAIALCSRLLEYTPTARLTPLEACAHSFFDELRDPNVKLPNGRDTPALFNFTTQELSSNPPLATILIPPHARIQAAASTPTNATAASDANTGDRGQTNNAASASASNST
UniProt Q9Y5S2: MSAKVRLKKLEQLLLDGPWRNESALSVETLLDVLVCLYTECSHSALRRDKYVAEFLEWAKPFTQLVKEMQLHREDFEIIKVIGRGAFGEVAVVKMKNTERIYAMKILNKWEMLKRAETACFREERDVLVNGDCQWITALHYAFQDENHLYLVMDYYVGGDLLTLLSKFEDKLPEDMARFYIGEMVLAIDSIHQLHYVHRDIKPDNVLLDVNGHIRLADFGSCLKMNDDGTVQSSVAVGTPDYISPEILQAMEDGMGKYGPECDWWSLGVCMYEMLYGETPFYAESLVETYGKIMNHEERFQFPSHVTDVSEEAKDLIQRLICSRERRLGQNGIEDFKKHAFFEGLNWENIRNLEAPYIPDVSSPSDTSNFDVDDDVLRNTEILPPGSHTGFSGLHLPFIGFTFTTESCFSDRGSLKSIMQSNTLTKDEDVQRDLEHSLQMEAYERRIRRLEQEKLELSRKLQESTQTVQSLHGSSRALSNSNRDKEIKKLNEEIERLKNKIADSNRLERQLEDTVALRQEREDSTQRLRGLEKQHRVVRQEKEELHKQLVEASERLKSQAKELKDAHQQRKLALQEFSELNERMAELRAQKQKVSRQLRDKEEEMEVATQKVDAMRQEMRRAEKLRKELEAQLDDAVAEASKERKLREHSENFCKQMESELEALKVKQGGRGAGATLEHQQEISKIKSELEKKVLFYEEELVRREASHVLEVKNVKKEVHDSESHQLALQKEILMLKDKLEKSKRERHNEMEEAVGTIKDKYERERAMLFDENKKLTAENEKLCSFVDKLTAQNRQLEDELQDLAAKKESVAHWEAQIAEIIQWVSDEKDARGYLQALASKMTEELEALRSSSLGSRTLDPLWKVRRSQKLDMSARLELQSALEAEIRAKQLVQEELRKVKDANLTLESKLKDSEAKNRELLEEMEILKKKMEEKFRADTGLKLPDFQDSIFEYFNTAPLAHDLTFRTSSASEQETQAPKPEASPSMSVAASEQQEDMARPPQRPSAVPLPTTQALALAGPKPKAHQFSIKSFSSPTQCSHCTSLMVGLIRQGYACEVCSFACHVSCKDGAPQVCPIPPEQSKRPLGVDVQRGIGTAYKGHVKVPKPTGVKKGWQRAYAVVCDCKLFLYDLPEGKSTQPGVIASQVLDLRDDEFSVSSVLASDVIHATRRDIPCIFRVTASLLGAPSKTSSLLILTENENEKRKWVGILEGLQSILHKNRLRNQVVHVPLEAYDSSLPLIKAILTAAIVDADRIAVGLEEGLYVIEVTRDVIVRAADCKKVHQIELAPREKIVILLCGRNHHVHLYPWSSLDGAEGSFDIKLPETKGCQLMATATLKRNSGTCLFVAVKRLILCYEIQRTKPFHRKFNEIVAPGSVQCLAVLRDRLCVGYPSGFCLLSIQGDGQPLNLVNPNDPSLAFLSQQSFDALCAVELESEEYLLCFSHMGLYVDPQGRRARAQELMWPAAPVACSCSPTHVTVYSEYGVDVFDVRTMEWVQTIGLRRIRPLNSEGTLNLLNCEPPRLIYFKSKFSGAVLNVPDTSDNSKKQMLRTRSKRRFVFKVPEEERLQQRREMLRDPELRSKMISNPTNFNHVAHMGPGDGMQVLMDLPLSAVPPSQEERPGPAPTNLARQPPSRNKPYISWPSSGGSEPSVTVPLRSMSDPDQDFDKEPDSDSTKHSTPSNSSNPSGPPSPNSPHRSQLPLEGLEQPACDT
UniProt O75582, whole entry, looked up: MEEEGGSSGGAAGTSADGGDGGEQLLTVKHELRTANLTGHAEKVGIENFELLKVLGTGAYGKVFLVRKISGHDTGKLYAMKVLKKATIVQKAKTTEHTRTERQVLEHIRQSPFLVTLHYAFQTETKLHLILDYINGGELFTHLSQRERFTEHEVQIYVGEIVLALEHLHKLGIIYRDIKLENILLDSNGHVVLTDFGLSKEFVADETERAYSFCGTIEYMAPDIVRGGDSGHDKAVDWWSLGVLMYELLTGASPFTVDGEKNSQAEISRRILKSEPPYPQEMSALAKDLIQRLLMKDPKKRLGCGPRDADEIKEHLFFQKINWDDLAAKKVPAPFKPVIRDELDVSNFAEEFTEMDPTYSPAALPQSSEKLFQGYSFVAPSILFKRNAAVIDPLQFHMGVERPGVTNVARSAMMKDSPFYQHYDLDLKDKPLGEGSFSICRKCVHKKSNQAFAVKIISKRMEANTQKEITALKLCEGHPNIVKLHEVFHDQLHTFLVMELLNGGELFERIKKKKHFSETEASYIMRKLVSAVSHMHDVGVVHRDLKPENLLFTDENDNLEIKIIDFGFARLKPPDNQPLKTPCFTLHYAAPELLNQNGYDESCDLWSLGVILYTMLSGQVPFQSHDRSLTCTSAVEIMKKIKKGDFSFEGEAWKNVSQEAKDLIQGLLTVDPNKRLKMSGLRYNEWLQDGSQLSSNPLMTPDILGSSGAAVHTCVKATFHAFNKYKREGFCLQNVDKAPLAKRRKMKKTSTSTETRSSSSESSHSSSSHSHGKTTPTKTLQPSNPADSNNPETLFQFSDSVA

Experiments:
[1] = target: Glycogen synthase kinase-3 beta (Homo sapiens) (UniProt P49841); conditions: Compound concentration 1000.0 nM
[2] = system: Tyrosine-protein kinase ABL1 (Homo sapiens), P00519 [Y253F]; conditions: Compound concentration 1000.0 nM
[3] = target: Tyrosine-protein kinase Fgr (Homo sapiens) (UniProt P09769); conditions: Compound concentration 1000.0 nM
[4] = system: Tyrosine-protein kinase ABL1 (Homo sapiens), P00519 [F317I]; conditions: Compound concentration 1000.0 nM
[5] = I2/CENTR/R Eurofins-Panlabs selectivity data (BI); conditions: Compound concentration 10.0 uM
[6] = target: T1, Peripheral plasma membrane protein CASK (Homo sapiens) (UniProt O14936); conditions: Compound concentration 1000.0 nM
T1 sequence (whole entry): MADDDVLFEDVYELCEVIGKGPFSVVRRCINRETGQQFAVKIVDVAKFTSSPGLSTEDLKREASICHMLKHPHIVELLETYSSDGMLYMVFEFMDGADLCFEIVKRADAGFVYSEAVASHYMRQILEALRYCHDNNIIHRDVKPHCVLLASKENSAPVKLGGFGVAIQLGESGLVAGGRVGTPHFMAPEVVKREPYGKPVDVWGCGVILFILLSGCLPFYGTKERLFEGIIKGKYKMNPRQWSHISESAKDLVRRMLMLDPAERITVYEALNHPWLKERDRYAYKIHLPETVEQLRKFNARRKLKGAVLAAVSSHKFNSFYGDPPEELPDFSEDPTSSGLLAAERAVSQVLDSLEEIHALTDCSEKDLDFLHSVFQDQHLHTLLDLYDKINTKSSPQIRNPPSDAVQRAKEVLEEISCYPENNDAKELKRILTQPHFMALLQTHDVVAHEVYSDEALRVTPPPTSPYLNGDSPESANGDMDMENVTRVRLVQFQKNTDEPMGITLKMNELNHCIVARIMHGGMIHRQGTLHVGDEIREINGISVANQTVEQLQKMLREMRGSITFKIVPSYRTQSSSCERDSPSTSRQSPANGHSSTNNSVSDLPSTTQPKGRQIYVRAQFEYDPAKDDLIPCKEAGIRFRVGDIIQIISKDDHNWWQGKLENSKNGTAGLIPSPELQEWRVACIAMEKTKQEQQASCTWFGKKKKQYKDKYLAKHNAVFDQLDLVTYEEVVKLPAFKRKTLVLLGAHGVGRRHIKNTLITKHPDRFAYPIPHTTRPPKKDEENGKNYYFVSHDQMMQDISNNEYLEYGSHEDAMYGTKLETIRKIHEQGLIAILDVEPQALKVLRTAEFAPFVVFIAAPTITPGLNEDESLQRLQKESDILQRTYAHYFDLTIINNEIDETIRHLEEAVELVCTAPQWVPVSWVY

[7] = target: T2, Activin receptor type-1B (Homo sapiens) (UniProt P36896); conditions: Compound concentration 1000.0 nM
T2 sequence (whole entry): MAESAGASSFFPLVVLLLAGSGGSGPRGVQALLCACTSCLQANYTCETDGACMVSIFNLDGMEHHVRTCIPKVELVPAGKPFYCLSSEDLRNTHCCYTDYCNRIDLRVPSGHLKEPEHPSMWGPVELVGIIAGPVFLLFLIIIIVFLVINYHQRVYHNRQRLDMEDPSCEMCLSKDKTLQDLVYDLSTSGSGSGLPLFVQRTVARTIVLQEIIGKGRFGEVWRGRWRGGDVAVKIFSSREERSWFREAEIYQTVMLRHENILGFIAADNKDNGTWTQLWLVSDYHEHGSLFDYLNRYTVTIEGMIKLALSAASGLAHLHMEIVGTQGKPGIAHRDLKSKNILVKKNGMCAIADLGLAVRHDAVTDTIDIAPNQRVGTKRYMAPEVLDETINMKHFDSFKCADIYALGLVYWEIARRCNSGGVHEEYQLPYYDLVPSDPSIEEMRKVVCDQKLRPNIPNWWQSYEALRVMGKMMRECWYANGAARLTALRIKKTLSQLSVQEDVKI

[8] = target: Serine/threonine-protein kinase MRCK beta (Homo sapiens) (UniProt Q9Y5S2); conditions: Compound concentration 1000.0 nM
[9] = target: Ribosomal protein S6 kinase alpha-5 (Homo sapiens) (UniProt O75582); conditions: Compound concentration 1000.0 nM
[10] = target: T3, Serine/threonine-protein kinase BRSK1 (Homo sapiens) (UniProt Q8TDC3); conditions: Compound concentration 1000.0 nM
T3 sequence (whole entry): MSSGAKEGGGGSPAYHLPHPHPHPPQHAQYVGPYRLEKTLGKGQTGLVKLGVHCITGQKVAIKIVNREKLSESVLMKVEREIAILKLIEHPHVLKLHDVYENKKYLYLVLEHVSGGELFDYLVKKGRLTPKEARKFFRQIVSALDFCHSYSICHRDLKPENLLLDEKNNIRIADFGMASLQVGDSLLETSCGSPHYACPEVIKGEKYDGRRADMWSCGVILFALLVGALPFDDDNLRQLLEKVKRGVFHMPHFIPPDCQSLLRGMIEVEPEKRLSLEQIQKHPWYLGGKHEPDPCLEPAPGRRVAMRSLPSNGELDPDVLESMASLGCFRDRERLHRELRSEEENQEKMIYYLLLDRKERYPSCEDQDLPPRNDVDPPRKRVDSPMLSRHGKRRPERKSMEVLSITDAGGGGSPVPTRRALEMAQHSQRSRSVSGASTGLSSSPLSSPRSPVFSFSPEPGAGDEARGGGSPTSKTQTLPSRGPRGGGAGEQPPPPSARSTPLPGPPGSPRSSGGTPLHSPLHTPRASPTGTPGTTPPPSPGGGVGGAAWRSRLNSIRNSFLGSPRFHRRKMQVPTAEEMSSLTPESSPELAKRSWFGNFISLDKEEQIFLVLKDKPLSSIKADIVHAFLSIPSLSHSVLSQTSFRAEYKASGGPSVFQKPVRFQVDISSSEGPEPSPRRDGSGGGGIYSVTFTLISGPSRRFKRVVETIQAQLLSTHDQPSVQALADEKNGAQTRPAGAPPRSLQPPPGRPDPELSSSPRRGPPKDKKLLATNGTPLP

[11] = target: Dual specificity mitogen-activated protein kinase kinase 2 (Homo sapiens) (UniProt P36507); conditions: Compound concentration 1000.0 nM
[12] = target: T4, NUAK family SNF1-like kinase 2 (Homo sapiens) (UniProt Q9H093); conditions: Compound concentration 1000.0 nM
T4 sequence (whole entry): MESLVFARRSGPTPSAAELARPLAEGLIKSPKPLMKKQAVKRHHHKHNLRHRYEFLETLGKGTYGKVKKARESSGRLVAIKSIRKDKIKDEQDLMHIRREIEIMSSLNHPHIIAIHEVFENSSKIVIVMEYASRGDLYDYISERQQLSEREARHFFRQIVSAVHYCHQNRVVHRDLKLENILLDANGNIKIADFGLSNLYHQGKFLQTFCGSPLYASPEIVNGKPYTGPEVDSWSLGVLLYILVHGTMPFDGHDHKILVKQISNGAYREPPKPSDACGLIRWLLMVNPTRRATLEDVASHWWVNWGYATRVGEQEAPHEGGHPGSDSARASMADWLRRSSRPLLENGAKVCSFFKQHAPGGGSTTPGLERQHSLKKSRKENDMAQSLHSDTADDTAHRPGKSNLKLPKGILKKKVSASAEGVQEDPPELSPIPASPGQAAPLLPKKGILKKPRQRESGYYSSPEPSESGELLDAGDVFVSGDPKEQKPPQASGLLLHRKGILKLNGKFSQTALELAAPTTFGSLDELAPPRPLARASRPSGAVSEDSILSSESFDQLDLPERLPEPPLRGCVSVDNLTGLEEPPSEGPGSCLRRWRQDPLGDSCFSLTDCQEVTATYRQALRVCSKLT

[13] = target: T5, Uncharacterized serine/threonine-protein kinase SBK3 (Homo sapiens) (UniProt P0C264); conditions: Compound concentration 1000.0 nM
T5 sequence (whole entry): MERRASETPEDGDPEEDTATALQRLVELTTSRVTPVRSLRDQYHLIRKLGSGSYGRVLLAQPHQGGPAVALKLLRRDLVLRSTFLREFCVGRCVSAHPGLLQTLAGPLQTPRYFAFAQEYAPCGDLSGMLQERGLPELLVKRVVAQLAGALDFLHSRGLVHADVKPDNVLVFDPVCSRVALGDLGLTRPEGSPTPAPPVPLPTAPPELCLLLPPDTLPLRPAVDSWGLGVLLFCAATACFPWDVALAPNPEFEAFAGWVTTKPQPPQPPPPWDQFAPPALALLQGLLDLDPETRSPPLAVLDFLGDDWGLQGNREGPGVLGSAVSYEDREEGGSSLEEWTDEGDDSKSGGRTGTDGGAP

[14] = target: T6, Dual specificity mitogen-activated protein kinase kinase 5 (Homo sapiens) (UniProt Q13163); conditions: Compound concentration 1000.0 nM
T6 sequence (whole entry): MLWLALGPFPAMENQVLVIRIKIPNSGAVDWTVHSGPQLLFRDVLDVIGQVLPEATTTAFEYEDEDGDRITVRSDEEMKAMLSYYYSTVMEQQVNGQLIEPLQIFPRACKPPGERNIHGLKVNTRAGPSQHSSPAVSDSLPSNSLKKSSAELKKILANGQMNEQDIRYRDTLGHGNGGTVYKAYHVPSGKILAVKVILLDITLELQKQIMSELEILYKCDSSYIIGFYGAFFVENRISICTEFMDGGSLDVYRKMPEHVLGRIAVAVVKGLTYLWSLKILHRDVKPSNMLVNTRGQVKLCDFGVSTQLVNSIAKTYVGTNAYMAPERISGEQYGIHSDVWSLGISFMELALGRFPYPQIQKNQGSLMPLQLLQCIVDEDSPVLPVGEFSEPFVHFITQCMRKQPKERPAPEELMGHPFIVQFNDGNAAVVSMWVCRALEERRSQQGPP

Measured: residual activity

CCC(=O)N[C@H]1CC[C@@H](C(=O)N(C)c2ccc(-c3nc4ccccc4o3)cc2)C1 [BI 99179]
inactive: [1] 81% | [2] 81% | [3] 81% | [4] 81% | [5] 81% | [6] 81% | [7] 81% | [8] 81% | [9] 81% | [10] 81% | [11] 81% | [12] 81% | [13] 81%

CCC(=O)N[C@@H]1CC[C@H](C(=O)N(C)c2ccc(-c3nc4ccccc4o3)cc2)C1 [BI 99990]
inactive: [14] 81%
